# Binding of CDR-mutated scFvs to a peptide of the spike HR2 region

All variants were tested on one target, the spike HR2 peptide PDVDLGDISGINAS (SARS-CoV-2).

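The starting antibody came from a phage panning campaign against this peptide. The library (AAYL51) carries one to three amino acid substitutions per variant, with no insertions or deletions. AlphaSeq pools MATa yeast showing the antibodies with MATalpha yeast showing the peptide. Binding brings cells together so that they mate, and sequencing counts the barcode pairs among the diploids. Each replicate has its own calibration line, from reference interactions of the BCL2 family. The assay was run in three technical replicates.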

Parent scFv Ab-91: VL joined to VH by the linker GGGGSGGGGSGGGGS. Changes lie in the heavy chain CDRs alone.
VL: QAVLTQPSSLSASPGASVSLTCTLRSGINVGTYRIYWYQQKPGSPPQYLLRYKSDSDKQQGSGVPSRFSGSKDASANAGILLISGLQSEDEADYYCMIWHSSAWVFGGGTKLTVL
VH: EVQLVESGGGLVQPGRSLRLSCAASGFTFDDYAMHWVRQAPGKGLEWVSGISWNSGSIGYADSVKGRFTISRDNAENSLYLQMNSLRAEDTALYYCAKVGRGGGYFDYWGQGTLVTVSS

Positions count from residue 1 of the parent VH; W53S puts S in place of W.
Affinities are written as log10 Kd with Kd in nM; a lower number is a better binder.
Averages over replicates are reported, and they cover detected replicates only.
A pair that was not seen in any replicate is written "no signal"; this usually means weak binding, but a binder can also be missed.
The list is sorted by this average, lowest first, undetected variants last.
Empty control strains, which show no peptide, gave a signal in 21% of pairings with library AAYL51; the median was 4.54 and 95% of these signals were weaker than 3.26. No background was subtracted. Also given: how often the same scFv was detected with the empty control strains.

changes	mean log10 Kd (nM)	seen in	empty controls
W53S/S63Q/V99I	-0.34	3/3	1/9
A33G/W53M/Y60M	0.86	3/3	1/9
G56A/V64L	1.20	3/3	1/9
A61T/S63K/V99G	2.24	3/3	1/9
I58H/D62K/D107H	3.12	3/3	3/9
A61C/K65A/F106M	3.16	2/3	1/9
T28K/V64N/V99A	3.67	1/3	0/9
G50F/S57T/I58G	3.73	1/3	3/9
F27C/I58D	3.91	1/3	0/9
F29K/M34I/Y108M	3.96	1/3	1/9
F29E/S63Y/G102F	4.15	3/3	2/9
Y32D/A33R/S57H	4.22	1/3	0/9
D30H/M34N/D62L	4.26	1/3	2/9
G26H/K65M/F106G	4.28	2/3	1/9
F29D/N54C/V99A	4.35	1/3	1/9
D30T/A33F/G56N	4.48	1/3	2/9
S52P/S55I/S57T	4.49	1/3	0/9
F29A/D30K/I51S	4.53	1/3	1/9
D30K/Y32E/W53F	4.64	1/3	6/9
T28D/F29E/G56E	4.72	1/3	2/9
Y32F/M34N/Y105I	4.75	2/3	0/9
H35L/I51A/Y60F	4.76	1/3	1/9
H35M/K65E/G100K	4.84	2/3	0/9
Y32R/G104E/Y108H	4.92	3/3	5/9
H35N/I51K/S55Y	4.93	2/3	4/9
G50R/W53Q/Y105M	4.95	3/3	6/9
S52R/G103W/F106A	4.99	2/3	6/9
S55R/I58L/G102V	5.13	1/3	2/9
D30R/N54P/F106N	5.24	2/3	4/9
I51V/Y60N	5.28	3/3	5/9
D31C/N54M/Y60L	5.30	1/3	0/9
Y32I/D62F/G102F	5.51	2/3	2/9

Second part, the sequence after the result:

mean log10 Kd (nM)	seen in	empty controls	changes
5.80	1/3	0/9	Y60W/S63Q
no signal	0/3	1/9	A33P/I51K/G56N
no signal	0/3	2/9	D30L/M34P/D107G
no signal	0/3	0/9	I51T/G59L/A61Y
no signal	0/3	0/9	F27C/S52W/Y108A
no signal	0/3	1/9	S55F/S57E/G100R
no signal	0/3	0/9	Y60I/V64C
no signal	0/3	1/9	F27D/S52E/G104H
no signal	0/3	0/9	F27A/M34R/S63W
no signal	0/3	1/9	I58G/Y60Q/G103Y
no signal	0/3	0/9	G59P/G104E/Y108R
no signal	0/3	0/9	F27T/M34N/K65I
no signal	0/3	0/9	V64P/F106Y/Y108W
no signal	0/3	3/9	F29Q/A33M/M34H
no signal	0/3	2/9	S57T/Y60C/F106A
no signal	0/3	0/9	S55T/V64P
no signal	0/3	0/9	T28K/S55C/S57G
no signal	0/3	0/9	A61S/V64Y
no signal	0/3	1/9	A33F/S52D/D107F
no signal	0/3	3/9	I51Y/S52D/S63H
no signal	0/3	0/9	F27A/I51R/S52N
no signal	0/3	0/9	N54D/G104W/D107Q
no signal	0/3	0/9	Y60C/V64S/G100T
no signal	0/3	2/9	H35G/G56E/I58T
no signal	0/3	0/9	G26W/G56E
no signal	0/3	0/9	F27D/N54A/Y105F
no signal	0/3	0/9	H35T/S57G/Y60H
no signal	0/3	1/9	G26Y/V99F
no signal	0/3	1/9	F29M/G59V/Y60C
no signal	0/3	0/9	Y60D/D62R/D107R
no signal	0/3	0/9	F27C/M34A/W53D
no signal	0/3	1/9	H35I/S63W

From the list, the first 9 with no signal in any replicate:

changes	mean log10 Kd (nM)	seen in	empty controls
A33P/I51K/G56N	no signal	0/3	1/9
D30L/M34P/D107G	no signal	0/3	2/9
I51T/G59L/A61Y	no signal	0/3	0/9
F27C/S52W/Y108A	no signal	0/3	0/9
S55F/S57E/G100R	no signal	0/3	1/9
Y60I/V64C	no signal	0/3	0/9
F27D/S52E/G104H	no signal	0/3	1/9
F27A/M34R/S63W	no signal	0/3	0/9
I58G/Y60Q/G103Y	no signal	0/3	1/9

Data: MIT Lincoln Laboratory AlphaSeq set, Engelhart et al. 2022, doi:10.1038/s41597-022-01779-4, as distributed in FLAb.